Literature values as cited in patent US11607432B2, “Probiotic compositions containing clostridiales for inhibiting inflammation” (Evelo Biosciences, Inc., priority 2014, dated 2023).

Conditions: Table 1; NIAID priority pathogen category, OP or N; cited from earlier work

| Substance | Pathogen Status |
| --- | --- |
| Clostridium clostridioforme | N |
| Parabacteroides distasonis | N |
| Clostridium symbiosum | N |
| Clostridium celatum | N |
| Clostridium bartlettii | N |
| Clostridium bolteae | N |
